{"source": "patent US11141489B2", "about": "“Conjugates comprising an GLP-1/Glucagon dual agonist, a linker and hyaluronic acid” (SANOFI, priority 2016, dated 2021)", "key": {"[1]": {"assay": "Body mass and feed consumption in female diet-induced obese (DIO) C57BL/6 mice", "assay_type": "in vivo, C57BL/6NHsd mice", "description": "Effects after Subcutaneous Treatment on Blood Glucose, Body Mass, Whole Body Fat Content, and Feed Consumption in Female Diet-Induced Obese (DIO) C57BL/6 Mice\nFemale C57BL/6NHsd mice were ordered group housed from Envigo RMS Inc., shipped group housed and remained group housed with shipped cage mates in disposable shoebox caging with wood chip bedding until day 38 of the pre-dose phase. At the study start mice were between 25-26 weeks old.\nMice were housed under vivarium conditions that included a 12 h light/dark cycle (light phase 04:00 AM-4:00 PM), room temperatures between 21-25° C. and a relative humidity between 30-70%. All animals had free access to water and diet (DIO: 75-TD97366, Lean: 10-Harlan2014) for 16 weeks prior to pharmacological intervention (dosing phase). Feed was replaced with fresh feed weekly until and for the last time on day 38 of the pre-dose phase. During the subsequent dosing phase, a portion of the remaining feed was removed, replaced with fresh feed, and pellets were mixed evenly once per week.\nOn pre-dose day 38, obese DIO mice were assigned to treatment groups (n=8) to match mean body masses between all DIO groups. An age-matched group with ad libitum access to a rodent maintenance diet was included in the study as a lean control group.\nMice were treated in the morning on day 1 and between 1:00 and 3:00 PM on days 8, 15, and 22—with a s.c. injection of cross-linked hyaluronic acid or 0.88 mg/kg*week SEQ ID NO: 5 using a 30 G needle. The applied volume was 300 μl per animal and alternate injection sites were used each week (1st injection left scapular, 2nd injection: right scapular, 3rd injection: left flank, 4th injection: right flank).\nBody mass and feed consumption (estimated for groups of four mice housed in one cage) were measured daily between 01:00-03:00 PM throughout the 28 days of the dosing phase.\nFor statistical analyses a One-Way Analysis of Variance (ANOVA) was performed with Sigmaplot 12.5. The power of the performed test was alpha=0.050:0.999 and a comparison versus the DIO-Vehicle group was performed with Dunnett's Method. Lean-Vehicle group data were used as a reference dataset for the non-obese state."}, "[2]": {"assay": "Blood glucose in fed, male diabetic db/db mice: pure peptide versus crosslinked HA conjugate (Example 21)", "assay_type": "in vivo, BKS.CG-m+/+ Lepr(db)/J mice", "details": "once daily s.c. 1.7 nmol/kg", "procedure": "Effects of SEQ ID NO: 5 after Subcutaneous Treatment on Blood Glucose in Fed, Male Diabetic db/db Mice—Comparison Pure Peptide SEQ ID NO: 5 with Crosslinked HA Conjugate of SEQ ID NO: 5 (Batch C)\nMale diabetic, obese BKS.CG-m+/+ Lepr(db)/J mice were ordered from Charles River and upon arrival housed in groups with wood chip bedding. At the study start mice were approximately 13-14 weeks old.\nMice were housed under vivarium conditions including a 12 h light/dark cycle (light phase 06:00 AM-6:00 PM), room temperatures between 23-26° C. and a relative humidity between 30-70%. All animals had free access to water and a rodent maintenance diet (Ssniff R/M−H).\nSeven days prior to dosing body mass and HbA1c measurements were performed. Thereafter animals were assigned to treatment groups (n=8) and to new cages to match mean HbA1c and body masses between the db/db groups.\nThe dosing intervals were: […]\nAnimals had unlimited access to water and feed during the experiment. On day 1 of the dosing phase blood glucose concentrations were measured prior to and 4 hours post-treatment. Thereafter blood glucose concentrations were assessed daily between 8:30 and 9:30 AM. For this purpose approximately 2 μL of blood were collected from the tail and blood glucose concentrations measured using a handheld device (Accu Chek). […]"}}}
{"smiles": "CCCCCCCCCCCCCCCC(=O)N[C@@H](CCC(=O)NCCCC[C@H](NC(=O)[C@H](CCC(N)=O)NC(=O)[C@H](CCCCN)NC(=O)[C@H](CO)NC(=O)[C@H](CC(C)C)NC(=O)[C@H](CC(=O)O)NC(=O)[C@H](CO)NC(=O)[C@@H](NC(=O)[C@H](Cc1ccccc1)NC(=O)[C@@H](NC(=O)CNC(=O)[C@H](CCC(N)=O)NC(=O)[C@@H](CO)NC(=O)[C@@H](N)Cc1c[nH]cn1)[C@@H](C)O)[C@@H](C)O)C(=O)N[C@@H](CCC(=O)O)C(=O)N[C@@H](CO)C(=O)N[C@@H](CCCCN)C(=O)N[C@@H](C)C(=O)N[C@@H](C)C(=O)N[C@@H](CCC(N)=O)C(=O)N[C@@H](CC(=O)O)C(=O)N[C@@H](Cc1ccccc1)C(=O)N[C@H](C(=O)N[C@@H](CCC(=O)O)C(=O)N[C@@H](Cc1c[nH]c2ccccc12)C(=O)N[C@@H](CC(C)C)C(=O)N[C@@H](CCCCN)C(=O)N[C@@H](C)C(=O)NCC(=O)NCC(=O)N1CCC[C@H]1C(=O)N[C@@H](CO)C(=O)N[C@@H](CO)C(=O)NCC(=O)N[C@@H](C)C(=O)N1CCC[C@H]1C(=O)N1CCC[C@H]1C(=O)N1CCC[C@H]1C(=O)N[C@@H](CO)C(N)=O)[C@@H](C)CC)C(=O)O", "note": "[SEQ ID NO: 5, H-dSer-Q-G-T-F-T-S-D-L-S-K-Q-K(γE-x53)-ESKAAQDFIEWLKAGGPSSGAPPPS-NH2]", "values": [{"measurement": "feed consumption effect following the first dose", "setting": "[1]; 0.88 mg/kg*week s.c., female DIO mice", "value": "pronounced feed consumption inhibition"}, {"measurement": "body mass effect of the first dose", "setting": "[1]; 0.88 mg/kg*week s.c., female DIO mice, lasted until day 8 (batch C)", "value": "marked and sustained body mass-reducing effect"}, {"measurement": "time to normalized feed consumption", "setting": "[1]; 0.88 mg/kg*week s.c., female DIO mice, then comparable to DIO-vehicle group", "value": "≤ 8", "unit": "days"}, {"measurement": "mean body mass below the mean body mass of the DIO-Vehicle group", "setting": "[1]; day 28, after four doses (day 1, 8, 15, 22) of 0.88 mg/kg*week s.c., statistically significant", "value": "approximately 13.6 g"}, {"measurement": "day up to which blood glucose concentrations were decreased", "setting": "[2]; as long as the animals were dosed", "value": "≤ 13", "unit": "days"}, {"measurement": "effect on blood glucose concentrations", "setting": "[2]; day 0 to day 13, fed male db/db mice", "value": "strong decrease in blood glucose concentrations"}]}
